Test results: ChEMBL document CHEMBL1629519, “2-Hydroxypropyl-β-cyclodextrin strongly improves water solubility and anti-proliferative activity of pyrazolo[3,4-d]pyrimidines Src-Abl dual inhibitors” (Eur J Med Chem, 2010)

Experiment: Lipophilicity, log P of the compound
Type: physicochemical
Details: octanol/water

logP: 6.01
Compound: CSc1nc(NCCc2ccccc2)c2cnn(CC(Cl)c3ccccc3)c2n1 (stereo unspecified)
